Test results reported in patent publication US20160032014A1.

Assays:
[1] = molecular target: human PCSK9 (self-cleaved, mature, secreted PCSK9 comprising amino acids 31 to 692 of SEQ ID NO: 2) (human) (UniProt Q8NBP7); test: SPR pH 5.5
[2] = molecular target: human PCSK9 (self-cleaved, mature, secreted PCSK9 comprising amino acids 31 to 692 of SEQ ID NO: 2) (human) (UniProt Q8NBP7); test: SPR pH 7.4
[3] = molecular target: cynomolgus PCSK9 (cynomolgus); test: SPR second screen pH 7.4
[4] = molecular target: human PCSK9 (self-cleaved, mature, secreted PCSK9 comprising amino acids 31 to 692 of SEQ ID NO: 2) (human) (UniProt Q8NBP7); test: SPR second screen pH 7.4
[5] = molecular target: human PCSK9 (self-cleaved, mature, secreted PCSK9 comprising amino acids 31 to 692 of SEQ ID NO: 2) (human) (UniProt Q8NBP7); test: SPR primary screen pH 7.4

pH 5.5 estimated complex half life [1] [s]	pH 5.5 estimated half life [1] [s]	Kd [2]	koff [2]	kon [2]	Kd [3] [nM]	koff [3] [s⁻¹]	kon [3] [M⁻¹ s⁻¹]	Kd [4] [nM]	koff [4] [s⁻¹]	kon [4] [M⁻¹ s⁻¹]	Kd [5] [nM]	koff [5] [s⁻¹]	kon [5] [M⁻¹ s⁻¹]	Substance
450	450	0.129 nM and 0.191 nM and 0.152 nM	5.27e-05 s⁻¹ and 8.1e-05 s⁻¹ and 6.47e-05 s⁻¹	408000 M⁻¹ s⁻¹ and 425000 M⁻¹ s⁻¹ and 426000 M⁻¹ s⁻¹										8A3 variant HC I107M / LC with S at 57 (parental LC) (antibody)
					0.998	0.000497	498000	0.704	0.000188	268000	0.947	0.000234	247000	SS-15758 (antibody)

“And” between values parts separate entries of the source, which are not always exact repeats. Equal values may be shown once.
